The test concerns Hemogenic endothelial cells (HECs) derived from iPS cells. Description: Importance of SR1 and IL-3 in production of T cell progenitor (Example 3). The test is classed as cell-based, human. Conditions: 12 days culture; control: 1 nM SR1, 10 ng/ml IL-3 plus SCF, Flt3L, TPO, IL-7, IL-6; FIG. 3. The protocol: Hemogenic endothelial cells (HECs) derived from iPS cells prepared in the same manner as in Example 1 were sorted by BD FACSAria® Fusion and re-suspended in a StemSpan SFEM II medium, followed by seeding the cells into a culture vessel (6-well plate) coated with RN and DLL4-Fc (225,000/6 wells). The added factors were the following: 300 ng/ml recombinant human (rh) stem cell factor (R&D systems), 300 ng/ml rh FMS-like tyrosine kinase 3 ligand (PeproTech), 100 ng/ml rh thrombopoietin (PeproTech), 100 ng/ml rh interleukin 7 (PeproTech), 100 ng/ml rh interleukin 6 (PeproTech), 10 ng/ml rh interleukin 3 (PeproTech), and 1 nM StemRegenin 1 (SR1, Calbiochem). Three conditions were set: all of these factors were added (control condition), interleukin 3 was excluded from the control condition (-IL-3 condition), and SR1 was excluded from the control condition (-SR1 condition); culture was then performed for 12 days. Halfway through the culture, on day 4 after the start of culture, 500 μl of the medium described above was added. On day 7 after the start of culture, a half amount of the medium was replaced. On day 12 after the start of culture, cells were collected with pipetting, and the cell number was measured. The cells were stained with the antibodies shown in Table 2 and measured with BD FACSAria™ Fusion.

The source of these data is US20230159891A1, “T CELL PROGENITOR PRODUCTION METHOD” (Kyoto University, priority 2020, published 2023).

B1: IL-3: recombinant human interleukin 3 (PeproTech) (protein, UniProt P08700 20-152, looked up)
Interleukin-3: APMTQTTPLKTSWVNCSNMIDEIITHLKQPPLPLLDFNNLNGEDQDILMENNLRRPNLEAFNRAVKSLQNASAIESILKNLLPCLPLATAAPTRHPIHIKDGDWNEFRRKLTFYLKTLENAQAQQTTLSLAIF
For the molecule B1, the “cell proliferation (cell number) when the factor is excluded from the additives” value is given as “reduced”.
